# Measured values taken from patent publication US12637487B2, “Combination product comprising dicycloplatin and preparation method and use thereof” (priority 2017, dated 2026).
# Test system: Hepatitis C virus (HCV type 2a, JFH1-Luc virus strain)
# Settings: Huh7.5.1 cells
substance,measurement,value
Dicycloplatin [MD36792],selection index SI (SI=CC50/EC50),1.54
